# Test: Thickness and temperature window for selected minimum aerosol purity and yield (Methods B and D)
# Details: window from plots of purity and yield versus temperature and film thickness (FIGS. 12C-19C)
Compound,aerosol purity within the thickness and temperature window obtained,aerosol yield within the thickness and temperature window obtained
tadalafil,greater than 95%,greater than 90%
prochlorperazine,greater than 98%,greater than 85%
CC1(C)O[C@@H]2C[C@H]3[C@@H]4C[C@H](F)C5=CC(=O)C=C[C@]5(C)[C@H]4[C@@H](O)C[C@]3(C)[C@]2(C(=O)CO)O1,greater than 90%,greater than 85%
valdecoxib,greater than 90%,greater than 50%
CC(C)(C)NCC(O)c1ccc(O)c(CO)c1 (stereo not shown),greater than 95%,greater than 85%
sildenafil,greater than 98%,greater than 90%
eletriptan,greater than 95%,greater than 75%

# Test: not given
# Details: alprazolam film ~1.3 microns, stainless steel foil, vaporized at 13 V (peak substrate temperature 240° C.)
row,Compound,percent yield [%]
1,Cc1nnc2n1-c1ccc(Cl)cc1C(c1ccccc1)=NC2,11.5

# Same assay, conditions: alprazolam film ~1.3 microns, stainless steel foil, vaporized at 16 V
row,Compound,percent yield [%]
1,Cc1nnc2n1-c1ccc(Cl)cc1C(c1ccccc1)=NC2,93.4

# From US20050037506A1, “Methods of determining film thicknesses for an aerosol delivery article” (published 2005)
